Molecular target: T1, hSSTR2 (Homo sapiens, UniProt P30874)
T1 construct: host or cells: 'Cells expressing hSSTR2'
Assay: Intracellular calcium mobilization assay (FLIPR Calcium 4), hSSTR2;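 further: agonist activity measured in cells expressing hSSTR2, seeded in 384-well plates, loaded with Calcium 4 dye, read-out as rise in intracellular calcium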
Format: cell-based
Details: Table IV; cells expressing hSSTR2; read-out: hSSTR2 EC50 (nM) ± SEM

Chains of the proteins cited; added tags and fusions are not shown. Lines headed by an entry give the natural chain unless they say otherwise; changes in a name come on top.
UniProt P30874: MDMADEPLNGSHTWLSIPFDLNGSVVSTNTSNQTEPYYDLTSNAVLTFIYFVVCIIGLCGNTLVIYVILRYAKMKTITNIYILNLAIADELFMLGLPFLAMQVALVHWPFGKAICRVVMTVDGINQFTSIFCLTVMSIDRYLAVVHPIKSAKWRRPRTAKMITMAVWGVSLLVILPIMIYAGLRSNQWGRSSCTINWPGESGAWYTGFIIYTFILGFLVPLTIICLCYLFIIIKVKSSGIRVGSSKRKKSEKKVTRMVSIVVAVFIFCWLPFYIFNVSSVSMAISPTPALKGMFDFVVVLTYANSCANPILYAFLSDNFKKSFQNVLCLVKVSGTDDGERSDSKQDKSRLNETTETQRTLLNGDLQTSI

Substance “Dop1-cyclo(DLys-Arg-Phe-Phe-DTrp-Lys-Thr-Phe) [Compound 44]” has an EC50 of 39.3 ± 16.7 nM.
